Experiments:
[1] = target: T1, Cyclooxygenase (Homo sapiens, UniProt P23219); assay: cell-based
[2] = target: T1, Cyclooxygenase; conditions: in words
[3] = in vivo; conditions: rat
[4] = read-out: % Inhibition of Cyclooxygenase

Chains of the proteins cited; added tags and fusions are not shown. Residues count along the entry.
UniProt P23219, 24-599: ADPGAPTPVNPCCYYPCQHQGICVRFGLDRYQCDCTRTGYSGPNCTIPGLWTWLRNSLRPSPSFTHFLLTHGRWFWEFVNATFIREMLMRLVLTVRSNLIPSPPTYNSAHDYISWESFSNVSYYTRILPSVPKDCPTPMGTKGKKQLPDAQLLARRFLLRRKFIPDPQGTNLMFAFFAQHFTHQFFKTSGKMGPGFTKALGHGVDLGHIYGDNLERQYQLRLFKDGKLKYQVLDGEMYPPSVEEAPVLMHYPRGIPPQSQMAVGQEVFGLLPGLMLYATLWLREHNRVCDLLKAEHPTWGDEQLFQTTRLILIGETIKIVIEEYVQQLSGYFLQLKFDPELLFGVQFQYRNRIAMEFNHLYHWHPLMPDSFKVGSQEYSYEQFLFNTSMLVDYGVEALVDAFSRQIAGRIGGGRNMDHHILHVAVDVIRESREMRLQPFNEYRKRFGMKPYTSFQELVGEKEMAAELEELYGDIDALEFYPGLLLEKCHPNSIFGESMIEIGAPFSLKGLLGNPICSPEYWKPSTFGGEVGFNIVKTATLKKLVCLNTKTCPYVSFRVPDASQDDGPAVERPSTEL

## CC(C)(C)c1cc(C=Cc2cccnc2)cc(C(C)(C)C)c1O [Compound 1, 3-[2-(3,5-di-t-butyl-4-hydroxyphenyl)ethenyl]-pyridine]
[1]
  IC50: 900 nM
[1]; [4]
  inhibition at 0.05 µM: 7%
  inhibition at 0.1 µM: 11%
  inhibition at 0.33 µM: 25%
  inhibition at 0.66 µM: 50%
  inhibition at 1 µM: 53%
  inhibition at 10 µM: 59%
[2]
  inhibition of cyclooxygenase: inhibit
[3]
  selectivity ratio: 50

Source: patent US4743606A, “3-[2-(3',5'-di-t-butyl-4'-hydroxyphenyl)ethenyl]pyridine having anti-inflammatory and anti-arthritic properties” (Boehringer Ingelheim Pharmaceuticals, Inc., priority 1986, dated 1988)
